According to article PMC5553550 (Nature nanotechnology, 2017):

Test system: rat spine (L4-L5)
Experiment: Micro-computed tomography of rat fusion mass
Type: in vivo
Details: PA 1 with 100 ng BMP-2 (synchrotron μCT); BMP-2 alone 10 μg (μCT)

B1: BMP-2: bone morphogenetic protein (BMP)-2, growth factor important in bone formation (protein, UniProt P12643 283-396, looked up)
Bone morphogenetic protein 2: QAKHKQRKRLKSSCKRHPLYVDFSDVGWNDWIVAPPGYHAFYCHGECPFPLADHLNSTNHAIVQTLVNSVNSKIPKACCVPTELSAISMLYLDENEKVVLKNYQDMVVEGCGCR
- fusion morphology (μCT): multilevel fusions
